Reference: patent EP0000322A1, “Compounds having an anti-depressive or tranquilizing activity, pharmaceutical compositions containing them, and processes and intermediates for their preparation” (priority 1977, dated 1979)

System: neuronal uptake of 5-hydroxytryptamine
Test: Inhibition of the uptake of 14C-5-HT in brain slices after in vivo (i.p.) administration
Design: species or system mice
Conditions: Mus musculus, ip, 0.5 h, read-out: Inhibition of the uptake in vivo i.p. ED50 5-HT, i.p. half an hour before the animals were killed, midbrain slices
Description: The test method described in Europ. J. Pharmacol. 17, 107, 1972. This method involves the measurement of the decrease in the uptake of ^14C-5-hydroxytryptamine (^14C-5-HT) and ^3H- -noradrenaline (^3H-NA) in brain slices from mice after in vivo and in vitro administration of the test substance.
The test substances were administered intraperitoneally half an hour before the animals were killed. The midbrain was taken out, sliced and incubated in a mixture consisting of 0.2 nmole of ^14C-5-HT, 0.2 nmole of ^3H-NA and 11 µmole of glucose in 2 ml of Krebs Henseleit-buffer, pH 7.4 per 100 mg of brain slices. The incubation time was 5 minutes with 5 minutes of preincubation before the labelled amines were added. The slices were dissolved in Soluene and the amounts of radioactive amines taken u^p were determined by liquid scintillation. The doses producing 50 per cent decrease of the active uptake (ED50) of ^14C-5-HT and ^3H-NA were determined graphically from dose response curves. Active uptake is defined as that part of the radioactive uptake which is inhibited by a high concentration of cocaine.

CN(C)CCCN1c2ccccc2CCc2ccc(Cl)cc21 [Chloroimipramine, reference compound]
ED50: 20 µmol/kg
